The values that follow are results of earlier work, collected in patent US20140100282A1, “INTRANASAL ADMINISTRATION OF PHARMACEUTICAL AGENTS FOR TREATMENT OF NEUROLOGICAL DISEASES” (priority 2012, published 2014).

The conditions of this data set: systemic treatment.

For `[H]/N=C(/N)N/C(=N/[H])NCCc1ccccc1` [phenformin], the “toxicity limiting systemic use” value is “lactic acidosis”.
